{
  "source": "PubChem BioAssay (Tox21)",
  "note": "The entries are a selection whose mix differs from that of the whole data set. Records with an inconclusive call do not appear. Activity calls are given as the source filed them. Calls follow the shape of the dose curve; as a rule, active = well fitted cell-killing curve with a large enough effect in the repeat runs; inconclusive = weak or mixed curves, or effect the other way; inactive = no such curve, though single readings can be large or run the other way. % is scaled to controls: 0 for no effect and ±100 for the full control effect; potency is read from the fitted curve at half-maximal effect.",
  "data": [
    {"experiment": "qHTS assay to identify small molecule antagonists of the retinoid-related orphan receptor gamma (ROR-gamma) signaling pathway - cell viability counter screen (AID 1159520); also: nearly all actives have a fitted effect of over 50% in size", "conditions": "Tet-on RORgamma CHO cells viability, ATP luminescence, 16 h; series mostly up to 92.4 µM; activity, negative = cytotoxicity: at the top concentration", "excerpt": "U.S. Tox21 Program National Center for Advancing Translational Sciences [NCATS] NIH Chemical Genomics Center [NCGC] U.S. Environmental Protection Agency [EPA] National Institutes of Environmental Health Sciences [NIEHS] National Toxicology Program [NTP] U.S. Food and Drug Administration [FDA] Tox21 Assay Overview: Nuclear steroid hormone receptors are involved in many biological processes including inflammatory responses, cell proliferation, and apoptosis. Environmental factors or compounds disrupting these nuclear receptor pathways and gene expression may promote susceptibility to immunotoxicants and autoimmune diseases. One important group of these expression factors are the retinoid-related orphan receptors. To assess compounds that may interfere with the retinoid-related orphan receptor gamma (ROR-gamma) transcription factor, a cell-based luciferase assay was used. The CHO cell-based assay utilizes a TET-inducible ROR expression factor and ROR response element-LUC reporter gene. Reporter gene activity was induced using Doxycycline Hyclate and measured after 16 hr incubation. Tet-on ROR gamma CHO cells were used to screen against the Tox21 10K compound library for cytotoxicity by measuring the viability of the cells based on the quantitation of the ATP.\nTox21 Assay Protocol Summary: Tet-on ROR gamma CHO cells were dispensed at 1,000 cells in 4 uL of culture medium per well into white wall/solid bottom 1536-well plates using a Multidrop Combi (Thermo Scientific, Waltham, MA) dispenser. Following incubation at 37 C and 5% CO2 for 4 hr, 23 nL of compounds dissolved in DMSO, positive controls or DMSO only were transferred by a Pintool station (Kalypsys, San Diego, CA) and after 2 hr incubation at 37 C, one ul of 1 uM (final concentration) of Doxycycline Hyclate was added to all the wells by using a Flying Reagent Dispenser (FRD) (Aurora Discovery, San Diego, CA). After 16 hr incubation at 37 C and 5% CO2, 5 uL of CellTiter-Glo reagent (Promega Corporation, Madison, WI) was added to each assay plate using FRD. After 30 min incubation at room temperature, luminescence was quantified on a ViewLux plate reader (Perkin Elmer, Waltham, MA).", "values": [
      {"smiles": "CCOP(=S)(CC)Sc1ccccc1", "note": "(stereo not given)", "activity, negative = cytotoxicity": "inactive: 4.43%"},
      {"smiles": "O=[As]c1ccccc1", "note": "(stereo not given)", "Potency": "active: 344 nM"},
      {"smiles": "CN(C(=O)Cc1ccccc1)[C@H]1CC[C@@]2(CCCO2)C[C@@H]1N1CCCC1", "activity, negative = cytotoxicity": "inactive: 1.04% [at 42.5 µM]"},
      {"smiles": "Cc1cc([N+](=O)[O-])c(O)c([N+](=O)[O-])c1", "activity, negative = cytotoxicity": "inactive: -14.7%"},
      {"smiles": "COP(=S)(Cl)OC", "activity, negative = cytotoxicity": "inactive: -9.76%"},
      {"smiles": "CCCCOP(OCCCC)OCCCC", "activity, negative = cytotoxicity": "inactive: -10.7%"},
      {"smiles": "O=[P+](Oc1ccccc1)Oc1ccccc1", "activity, negative = cytotoxicity": "inactive: -4.39%"},
      {"smiles": "CCCCC(CC)CO[P+](=O)OCC(CC)CCCC", "note": "(stereo not given)", "activity, negative = cytotoxicity": "inactive: -0.289%"},
      {"smiles": "O=P(Cl)(Cl)c1ccccc1", "activity, negative = cytotoxicity": "inactive: 0.689%"},
      {"smiles": "CCOC(=O)Cl", "activity, negative = cytotoxicity": "inactive: 11.9%"},
      {"smiles": "CCNC(C)Cc1ccc2c(c1)OCO2", "note": "(stereo not given)", "activity, negative = cytotoxicity": "inactive: 2.14%"},
      {"smiles": "CCC(C)(OOC(C)(C)C)OOC(C)(C)C", "activity, negative = cytotoxicity": "inactive: -6.7% [at 19 µM]"},
      {"smiles": "COC(=O)Cl", "activity, negative = cytotoxicity": "inactive: -0.668%"},
      {"smiles": "O=[p+]1oc2ccccc2c2ccccc21", "note": "(stereo not given)", "activity, negative = cytotoxicity": "inactive: -12.2%"},
      {"smiles": "CN(C(=O)Cc1ccc(Cl)c(Cl)c1)[C@H]1CC[C@@]2(CCCO2)C[C@@H]1N1CCCC1", "activity, negative = cytotoxicity": "inactive: -2.07% [at 42.5 µM]"},
      {"smiles": "CN(C(=O)Cc1cccc2occc12)[C@H]1CC[C@@]2(CCCO2)C[C@@H]1N1CCCC1", "activity, negative = cytotoxicity": "inactive: 2.79%"},
      {"smiles": "O=[N+]([O-])c1ccc(S(=O)(=O)O)c([N+](=O)[O-])c1", "activity, negative = cytotoxicity": "inactive: 13.1%"},
      {"smiles": "O=C(Cl)OCCOC(=O)Cl", "activity, negative = cytotoxicity": "inactive: 0.481%"},
      {"smiles": "CC(C)CCCCCCCOP(OCCCCCCCC(C)C)Oc1ccccc1", "activity, negative = cytotoxicity": "inactive: -11.9%"},
      {"smiles": "O=C(Cl)Oc1ccccc1", "activity, negative = cytotoxicity": "inactive: -2.83%"},
      {"smiles": "CC(C)OP(=S)(OC(C)C)SCCNS(=O)(=O)c1ccccc1", "activity, negative = cytotoxicity": "inactive: -19.8%"},
      {"smiles": "O=P(Cl)(Oc1ccccc1)Oc1ccccc1", "activity, negative = cytotoxicity": "inactive: -3.77%"},
      {"smiles": "ClP(Cl)c1ccccc1", "activity, negative = cytotoxicity": "inactive: 6.27%"},
      {"smiles": "CCCCO[P+](=O)OCCCC", "Potency": "inactive"},
      {"smiles": "NC(=O)Nc1ccc([As](=O)(O)O)cc1", "Potency": "inactive"}
    ]}
  ]
}
